From BindingDB's records for doi:10.1124/jpet.301.3.1097 (Harvard University, 2002)

Chains of the proteins cited; added tags and fusions are not shown.
UniProt P31652, whole entry: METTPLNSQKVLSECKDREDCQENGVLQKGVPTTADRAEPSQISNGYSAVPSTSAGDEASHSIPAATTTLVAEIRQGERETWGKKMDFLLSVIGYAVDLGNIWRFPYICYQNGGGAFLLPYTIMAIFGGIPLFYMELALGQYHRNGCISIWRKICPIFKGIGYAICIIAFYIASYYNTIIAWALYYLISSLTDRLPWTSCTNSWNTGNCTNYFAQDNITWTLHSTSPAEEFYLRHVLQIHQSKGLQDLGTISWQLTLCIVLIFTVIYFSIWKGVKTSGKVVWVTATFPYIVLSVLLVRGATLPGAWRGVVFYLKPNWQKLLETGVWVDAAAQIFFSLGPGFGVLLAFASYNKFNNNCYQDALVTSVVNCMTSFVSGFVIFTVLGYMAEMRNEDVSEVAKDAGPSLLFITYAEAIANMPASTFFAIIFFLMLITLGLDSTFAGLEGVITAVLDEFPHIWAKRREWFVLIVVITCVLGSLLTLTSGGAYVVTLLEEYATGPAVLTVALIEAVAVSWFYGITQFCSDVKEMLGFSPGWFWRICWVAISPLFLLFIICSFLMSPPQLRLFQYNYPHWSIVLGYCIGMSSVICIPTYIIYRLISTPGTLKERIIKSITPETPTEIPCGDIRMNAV
UniProt P23977, whole entry: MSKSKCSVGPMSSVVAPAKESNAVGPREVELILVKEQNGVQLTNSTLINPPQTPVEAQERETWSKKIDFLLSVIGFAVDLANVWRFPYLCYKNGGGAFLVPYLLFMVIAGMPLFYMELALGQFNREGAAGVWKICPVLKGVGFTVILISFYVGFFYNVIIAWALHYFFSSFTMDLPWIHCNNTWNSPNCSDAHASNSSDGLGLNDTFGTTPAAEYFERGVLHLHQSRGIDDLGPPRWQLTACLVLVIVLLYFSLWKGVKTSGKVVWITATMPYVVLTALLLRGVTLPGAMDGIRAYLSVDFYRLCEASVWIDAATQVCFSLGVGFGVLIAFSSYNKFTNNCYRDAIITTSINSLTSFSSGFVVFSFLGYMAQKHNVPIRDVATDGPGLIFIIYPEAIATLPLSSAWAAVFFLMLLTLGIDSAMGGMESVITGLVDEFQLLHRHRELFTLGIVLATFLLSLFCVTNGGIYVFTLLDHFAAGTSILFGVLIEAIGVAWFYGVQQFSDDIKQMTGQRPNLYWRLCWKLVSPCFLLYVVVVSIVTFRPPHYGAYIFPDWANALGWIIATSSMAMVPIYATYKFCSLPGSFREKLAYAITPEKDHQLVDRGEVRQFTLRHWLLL

Tests used:
[1] = biological target: Sodium-dependent serotonin transporter (Rattus norvegicus, UniProt P31652)
[2] = biological target: Sodium-dependent dopamine transporter (Rattus norvegicus, UniProt P23977)

SMILES	Ki [1] [nM]	Ki [2] [nM]
CNCCC(Oc1ccccc1OC)c1ccccc1 (stereo not drawn) [3-(2-methoxyphenoxy)-N-methyl-3-phenylpropan-1-amine]	158	505
CN(C)CCCC1(c2ccc(F)cc2)OCc2cc(C#N)ccc21 (stereo not drawn) [CITALOPRAM HYDROBROMIDE]		> 10000

Where a name gives a salt, the structure may show the parent alone.
